According to patent US10568320B2, “Biologically-based control methods for insect pests” (The United States of America, as represented by the …, priority 2017, dated 2020):

System: female sexuals (alates)
Experiment: Planar ovariole area of dealates from fed queenless sub-colonies
Details: 1% in 10% sucrose; N=15; alates with workers, no queen

| SMILES | planar ovariole area (pixels) |
| --- | --- |
| CNCCc1ccc(O)cc1 [N-methyl-tyramine (free base), N-methyl-tyramine] | different from dimethyl tyramine and the sucrose control |
| NCCc1ccc(O)cc1 [tyramine] | different from dimethyl tyramine and the sucrose control |
